{
  "source": "patent US20050059610A1",
  "about": "(priority 2003, published 2005)",
  "test_system": "endotoxin-induced sepsis",
  "experiment": "Lethal endotoxemia: survival, HSP expression, cytokine release",
  "settings": "rat, in vivo",
  "procedure": "GLN was administered concurrently with lethal doses of endotoxin.\nEvaluation of pro-inflammatory cytokine release was also assessed following endotoxemia.",
  "data": [
    {"smiles": "NC(=O)CC[C@H](N)C(=O)O", "note": "[GLN, Glutamine]", "values": [
      {"measurement": "IL-1 beta following endotoxemia", "result": "attenuated"},
      {"measurement": "TNF-alpha following endotoxemia", "result": "attenuated"}
    ]}
  ]
}
